Experimental data: PubChem BioAssay (Tox21)
The source calls these results inconclusive, neither active nor inactive. Unless noted, the call rests on the fitted dose curve; in most records, active means well fitted curve in the direction sought with a large enough effect in the repeat runs; inconclusive means weak or mixed curves; inactive means no such curve, though single readings can be large; an effect the other way counts as inactive or inconclusive.

The chains behind the UniProt entries cited, without tags or fusion partners. Where a name states a change or a piece, a line headed by the entry shows the natural chain unless it says otherwise.
UniProt P03372, whole entry, looked up: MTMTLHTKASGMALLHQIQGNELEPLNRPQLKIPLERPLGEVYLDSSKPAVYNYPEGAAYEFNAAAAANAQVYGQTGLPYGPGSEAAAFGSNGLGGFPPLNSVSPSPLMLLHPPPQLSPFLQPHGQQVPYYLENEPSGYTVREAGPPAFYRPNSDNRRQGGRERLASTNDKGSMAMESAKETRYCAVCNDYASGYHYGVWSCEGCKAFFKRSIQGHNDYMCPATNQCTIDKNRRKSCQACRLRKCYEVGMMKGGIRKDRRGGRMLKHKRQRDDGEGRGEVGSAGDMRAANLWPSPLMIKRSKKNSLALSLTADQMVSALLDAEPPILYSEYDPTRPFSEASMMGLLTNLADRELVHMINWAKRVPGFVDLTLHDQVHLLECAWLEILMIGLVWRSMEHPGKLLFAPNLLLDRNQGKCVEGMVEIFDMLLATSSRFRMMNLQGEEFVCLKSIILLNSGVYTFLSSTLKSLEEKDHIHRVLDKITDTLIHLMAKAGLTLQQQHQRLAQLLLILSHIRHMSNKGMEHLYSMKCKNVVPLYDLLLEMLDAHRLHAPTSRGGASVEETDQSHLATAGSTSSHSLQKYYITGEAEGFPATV
UniProt P11511: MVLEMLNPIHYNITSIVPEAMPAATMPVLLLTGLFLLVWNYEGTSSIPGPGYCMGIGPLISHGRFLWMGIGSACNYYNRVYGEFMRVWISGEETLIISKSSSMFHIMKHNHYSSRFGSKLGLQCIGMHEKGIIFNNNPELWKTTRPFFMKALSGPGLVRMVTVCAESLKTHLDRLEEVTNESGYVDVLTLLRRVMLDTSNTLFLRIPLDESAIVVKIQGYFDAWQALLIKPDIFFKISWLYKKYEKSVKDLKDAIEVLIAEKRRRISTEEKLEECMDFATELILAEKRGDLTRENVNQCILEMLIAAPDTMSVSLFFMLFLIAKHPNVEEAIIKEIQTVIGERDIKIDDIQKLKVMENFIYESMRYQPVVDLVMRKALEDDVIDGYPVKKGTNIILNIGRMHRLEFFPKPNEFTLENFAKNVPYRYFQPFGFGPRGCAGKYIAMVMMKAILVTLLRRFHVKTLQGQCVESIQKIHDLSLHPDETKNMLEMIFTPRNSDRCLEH
UniProt P37231: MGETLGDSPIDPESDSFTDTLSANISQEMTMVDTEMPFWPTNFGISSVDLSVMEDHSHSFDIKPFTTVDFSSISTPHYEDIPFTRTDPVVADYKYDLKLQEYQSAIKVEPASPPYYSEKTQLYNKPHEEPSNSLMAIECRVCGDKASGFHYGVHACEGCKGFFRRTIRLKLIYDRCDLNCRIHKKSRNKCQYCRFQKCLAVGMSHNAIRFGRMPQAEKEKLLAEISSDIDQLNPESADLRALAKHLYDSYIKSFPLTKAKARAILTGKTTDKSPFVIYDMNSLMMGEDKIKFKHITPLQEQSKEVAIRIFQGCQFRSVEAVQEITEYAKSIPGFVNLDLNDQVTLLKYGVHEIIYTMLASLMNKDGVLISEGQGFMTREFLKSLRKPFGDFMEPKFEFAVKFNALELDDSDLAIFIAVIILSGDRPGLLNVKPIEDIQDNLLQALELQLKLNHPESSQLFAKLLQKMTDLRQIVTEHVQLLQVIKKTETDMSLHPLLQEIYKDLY
UniProt Q14994: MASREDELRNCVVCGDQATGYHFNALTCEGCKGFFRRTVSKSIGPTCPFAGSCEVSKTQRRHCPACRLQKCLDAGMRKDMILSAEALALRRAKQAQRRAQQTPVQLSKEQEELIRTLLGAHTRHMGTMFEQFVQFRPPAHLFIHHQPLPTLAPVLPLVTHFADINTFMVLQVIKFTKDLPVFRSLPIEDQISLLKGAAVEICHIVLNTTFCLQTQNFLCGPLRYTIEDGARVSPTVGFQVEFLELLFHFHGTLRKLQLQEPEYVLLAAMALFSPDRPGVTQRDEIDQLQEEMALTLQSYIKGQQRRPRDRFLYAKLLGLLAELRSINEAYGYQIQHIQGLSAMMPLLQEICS
UniProt P05177, whole entry, looked up: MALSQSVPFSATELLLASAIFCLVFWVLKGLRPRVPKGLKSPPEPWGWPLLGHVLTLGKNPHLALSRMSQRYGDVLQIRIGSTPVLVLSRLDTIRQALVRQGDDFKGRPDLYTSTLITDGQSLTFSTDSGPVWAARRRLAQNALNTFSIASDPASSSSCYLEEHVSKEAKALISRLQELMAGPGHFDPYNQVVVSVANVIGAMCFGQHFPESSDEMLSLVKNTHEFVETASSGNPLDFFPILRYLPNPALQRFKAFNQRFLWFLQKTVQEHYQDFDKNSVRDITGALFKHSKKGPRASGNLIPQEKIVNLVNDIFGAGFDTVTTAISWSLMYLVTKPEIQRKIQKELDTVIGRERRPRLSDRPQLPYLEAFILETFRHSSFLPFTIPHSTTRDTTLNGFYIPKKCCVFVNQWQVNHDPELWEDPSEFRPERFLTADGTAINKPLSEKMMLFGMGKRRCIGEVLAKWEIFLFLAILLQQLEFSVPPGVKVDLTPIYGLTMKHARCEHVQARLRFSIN
UniProt Q12809: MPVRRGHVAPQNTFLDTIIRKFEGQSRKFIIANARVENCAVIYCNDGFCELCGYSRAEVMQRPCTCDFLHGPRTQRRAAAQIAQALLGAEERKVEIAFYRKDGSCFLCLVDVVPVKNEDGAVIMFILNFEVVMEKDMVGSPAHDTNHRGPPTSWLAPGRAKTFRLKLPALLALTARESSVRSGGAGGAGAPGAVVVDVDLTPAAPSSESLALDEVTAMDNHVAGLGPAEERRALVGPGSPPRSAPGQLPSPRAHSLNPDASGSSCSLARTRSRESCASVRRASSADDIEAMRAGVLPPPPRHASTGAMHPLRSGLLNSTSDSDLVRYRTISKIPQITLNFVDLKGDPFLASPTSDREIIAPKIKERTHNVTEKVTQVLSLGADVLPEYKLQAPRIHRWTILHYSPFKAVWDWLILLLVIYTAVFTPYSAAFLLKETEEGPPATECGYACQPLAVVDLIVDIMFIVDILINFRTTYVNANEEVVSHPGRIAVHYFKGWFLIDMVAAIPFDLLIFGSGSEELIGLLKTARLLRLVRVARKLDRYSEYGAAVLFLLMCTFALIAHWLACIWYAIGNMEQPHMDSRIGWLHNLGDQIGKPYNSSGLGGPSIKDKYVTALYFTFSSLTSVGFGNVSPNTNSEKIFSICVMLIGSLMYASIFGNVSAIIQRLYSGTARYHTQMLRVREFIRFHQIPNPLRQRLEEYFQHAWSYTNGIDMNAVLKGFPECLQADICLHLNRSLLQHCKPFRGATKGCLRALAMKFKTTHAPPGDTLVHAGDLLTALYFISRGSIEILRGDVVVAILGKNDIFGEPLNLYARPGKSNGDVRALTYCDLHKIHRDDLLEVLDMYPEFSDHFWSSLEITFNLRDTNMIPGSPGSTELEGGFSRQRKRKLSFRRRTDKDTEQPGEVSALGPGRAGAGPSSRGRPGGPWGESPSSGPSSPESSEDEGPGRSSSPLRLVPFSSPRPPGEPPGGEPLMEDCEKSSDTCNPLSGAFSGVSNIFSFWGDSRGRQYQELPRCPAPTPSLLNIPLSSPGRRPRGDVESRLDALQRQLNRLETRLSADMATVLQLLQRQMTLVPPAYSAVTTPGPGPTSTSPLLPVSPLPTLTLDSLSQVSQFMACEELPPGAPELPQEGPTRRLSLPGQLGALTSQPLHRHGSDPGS
UniProt P33261, whole entry, looked up: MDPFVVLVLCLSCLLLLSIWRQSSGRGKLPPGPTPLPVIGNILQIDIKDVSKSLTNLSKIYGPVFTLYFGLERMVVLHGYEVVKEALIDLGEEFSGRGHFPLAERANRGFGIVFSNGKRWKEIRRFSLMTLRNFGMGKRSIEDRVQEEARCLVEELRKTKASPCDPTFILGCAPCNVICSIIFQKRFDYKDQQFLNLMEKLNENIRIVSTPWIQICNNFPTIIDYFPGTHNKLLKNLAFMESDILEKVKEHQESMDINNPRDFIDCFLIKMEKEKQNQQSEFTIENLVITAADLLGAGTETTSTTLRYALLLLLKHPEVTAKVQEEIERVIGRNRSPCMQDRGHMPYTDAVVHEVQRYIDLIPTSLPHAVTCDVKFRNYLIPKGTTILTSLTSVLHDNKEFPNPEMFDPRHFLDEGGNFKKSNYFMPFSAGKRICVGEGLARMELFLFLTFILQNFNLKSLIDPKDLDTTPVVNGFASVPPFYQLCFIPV
UniProt Q03181: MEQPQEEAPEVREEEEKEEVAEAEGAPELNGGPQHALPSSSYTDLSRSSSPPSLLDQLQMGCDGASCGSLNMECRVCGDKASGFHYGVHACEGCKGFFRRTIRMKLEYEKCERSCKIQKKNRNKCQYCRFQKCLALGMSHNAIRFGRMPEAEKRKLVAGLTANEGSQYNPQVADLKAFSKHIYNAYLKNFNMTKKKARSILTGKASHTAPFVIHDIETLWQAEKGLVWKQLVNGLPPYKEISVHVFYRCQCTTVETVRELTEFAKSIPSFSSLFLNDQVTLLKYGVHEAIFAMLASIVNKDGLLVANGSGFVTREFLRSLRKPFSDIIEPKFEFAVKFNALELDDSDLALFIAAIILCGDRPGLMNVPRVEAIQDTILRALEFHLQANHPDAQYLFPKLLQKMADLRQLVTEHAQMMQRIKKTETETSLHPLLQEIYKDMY
UniProt P11473: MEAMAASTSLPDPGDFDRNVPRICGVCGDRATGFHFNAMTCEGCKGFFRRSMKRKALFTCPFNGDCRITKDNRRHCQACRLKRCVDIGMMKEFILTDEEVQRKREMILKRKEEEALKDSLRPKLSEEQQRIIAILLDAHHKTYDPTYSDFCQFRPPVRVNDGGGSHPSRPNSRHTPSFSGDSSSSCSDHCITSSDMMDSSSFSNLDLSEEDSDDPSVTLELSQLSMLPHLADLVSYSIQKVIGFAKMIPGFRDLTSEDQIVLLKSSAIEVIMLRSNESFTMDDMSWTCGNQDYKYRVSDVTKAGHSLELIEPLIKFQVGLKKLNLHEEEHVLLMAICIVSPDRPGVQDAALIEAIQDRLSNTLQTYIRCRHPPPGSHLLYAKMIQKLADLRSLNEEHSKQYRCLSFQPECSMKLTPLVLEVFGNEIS
UniProt Q92731, whole entry, looked up: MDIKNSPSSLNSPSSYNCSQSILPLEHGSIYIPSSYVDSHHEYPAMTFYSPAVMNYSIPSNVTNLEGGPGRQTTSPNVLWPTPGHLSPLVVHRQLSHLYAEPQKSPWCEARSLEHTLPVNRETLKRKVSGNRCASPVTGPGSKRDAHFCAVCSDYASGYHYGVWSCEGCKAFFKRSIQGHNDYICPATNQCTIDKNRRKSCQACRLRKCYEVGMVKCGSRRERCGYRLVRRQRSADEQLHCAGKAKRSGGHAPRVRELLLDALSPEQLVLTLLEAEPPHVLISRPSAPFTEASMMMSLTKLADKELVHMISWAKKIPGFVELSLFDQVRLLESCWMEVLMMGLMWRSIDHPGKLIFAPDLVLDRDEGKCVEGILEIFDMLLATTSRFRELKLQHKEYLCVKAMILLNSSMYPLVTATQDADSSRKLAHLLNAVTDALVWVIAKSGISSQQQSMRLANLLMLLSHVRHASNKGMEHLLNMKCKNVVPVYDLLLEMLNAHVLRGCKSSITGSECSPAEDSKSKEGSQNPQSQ
UniProt P10635, whole entry, looked up: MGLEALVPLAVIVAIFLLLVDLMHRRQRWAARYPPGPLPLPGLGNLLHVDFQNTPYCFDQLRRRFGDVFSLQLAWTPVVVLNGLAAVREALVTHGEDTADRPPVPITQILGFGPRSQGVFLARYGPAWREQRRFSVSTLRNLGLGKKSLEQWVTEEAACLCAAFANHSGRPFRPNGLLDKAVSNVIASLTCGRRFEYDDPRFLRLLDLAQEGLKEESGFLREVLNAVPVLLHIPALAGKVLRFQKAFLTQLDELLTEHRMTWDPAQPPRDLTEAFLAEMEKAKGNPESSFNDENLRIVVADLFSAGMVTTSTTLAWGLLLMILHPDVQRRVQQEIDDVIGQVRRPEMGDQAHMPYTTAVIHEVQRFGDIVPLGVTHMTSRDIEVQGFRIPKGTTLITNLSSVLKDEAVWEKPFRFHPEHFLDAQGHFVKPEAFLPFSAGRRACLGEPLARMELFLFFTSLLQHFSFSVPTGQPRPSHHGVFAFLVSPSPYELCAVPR

Tests used:
[1] = qHTS assay for small molecule disruptors of the mitochondrial membrane potential (AID 720635); details: HepG2 mitochondrial membrane potential, Mito-MPS dye ratio; ratio activity, negative = MMP loss: at 83.2 µM (top of the series) unless noted; further: on the % scale 0 is the no-effect control and ±100 the full control effect
[2] = qHTS assay for identifying genotoxic compounds that show differential cytotoxicity against isogenic chicken DT40 cell lines with known DNA damage response pathways - Rad54/Ku70 mutant cell line (AID 743015); details: DT40 Rad54/Ku70 mutant viability, CellTiter-Glo, 40 h; further: potency means the concentration at half of the fitted maximal effect; nearly all actives have a fitted effect of over 60% in size
[3] = qHTS assay to identify small molecule antagonists of the thyroid receptor (TR) signaling pathway - cell viability counter screen (AID 743064); details: GH3.TRE-Luc viability, CellTiter-Fluor, 24 h; further: potency means the concentration at half of the fitted maximal effect; nearly all actives have a fitted effect of over 50% in size
Summary of the method: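 In-well cytotoxicity read by CellTiter-Fluor (30 min, 37 C) following 23.5 h exposure of GH3 cells bearing a TRE-luciferase sensor. Compounds were added alongside 1 nM (final) T3 to drive TR transactivation.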

[4] = biological target: Estrogen receptor (Homo sapiens) (UniProt P03372); assay: qHTS assay to identify small molecule agonists of the estrogen receptor alpha (ER-alpha) signaling pathway using the BG1 cell line (AID 743079); details: BG1Luc4E2 cells, ERE-luciferase agonist, 22 h; activation: at 70.3 µM (top of the series); further: on the % scale 0 is the no-effect control and ±100 the full control effect; nearly all actives have a fitted effect of over 20% in size
[5] = biological target: Aromatase (Homo sapiens) (UniProt P11511); assay: qHTS assay to identify aromatase inhibitors (AID 743083); details: MCF-7 aro ERE, testosterone-driven ERE luciferase, 24 h; further: potency means the concentration at half of the fitted maximal effect; nearly all actives have a fitted effect of over 55% in size
[6] = biological target: Peroxisome proliferator-activated receptor gamma (Homo sapiens) (UniProt P37231); assay: qHTS assay to identify small molecule antagonists of the peroxisome proliferator-activated receptor gamma (PPARg) signaling pathway (AID 743191; calls by dose curve; further: on the % scale 0 is the no-effect control and ±100 the full control effect; nearly all actives have a fitted effect of over 30% in size); details: HEK293H PPARg-UAS-bla, beta-lactamase ratio, antagonist, 17 h; ratio activity, negative = inhibition: at 62.6 µM (top of the series)
[7] = biological target: Nuclear receptor subfamily 1 group I member 3 (Homo sapiens) (UniProt Q14994); assay: qHTS assay to identify small molecule agonists of the constitutive androstane receptor (CAR) signaling pathway (AID 1224839); details: HepG2 hCAR CYP2B6-luciferase, agonist mode, 24 h; further: potency means the concentration at half of the fitted maximal effect; nearly all actives have a fitted effect of over 15% in size
[8] = biological target: Thyrotropin receptor (Homo sapiens) (UniProt P16473); assay: qHTS assay to identify small molecule antagonists of the thyroid stimulating hormone receptor (TSHR) signaling pathway (AID 1259385; calls by dose curve; further: on the % scale 0 is the no-effect control and ±100 the full control effect; nearly all actives have a fitted effect of over 20% in size); details: TSHR-HEK293 cAMP HTRF, TSH-stimulated antagonist mode; activity change, negative = inhibition: at 92.4 µM (top of the series)
[9] = biological target: Cytochrome P450 1A2 (Homo sapiens) (UniProt P05177); assay: Cytochrome P450 Family 1 Subfamily A Member 2 (CYP1A2) small molecule antagonists: luciferase reporter qHTS assay (AID 1671199); details: P450-Glo CYP1A2 enzyme, luciferin luminescence, 1 h; further: potency means the concentration at half of the fitted maximal effect; nearly all actives have a fitted effect of over 50% in size
[10] = biological target: Voltage-gated inwardly rectifying potassium channel KCNH2 (Homo sapiens) (UniProt Q12809); assay: Human Ether-a-go-go-Related Gene (hERG) channel small molecule antagonists: fluorescence cell-based qHTS assay (AID 1671200); details: hERG-U2OS cells, FluxOR thallium flux fluorescence; further: potency means the concentration at half of the fitted maximal effect; nearly all actives have a fitted effect of over 50% in size
Summary of the method: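 Thallium flux as potassium surrogate: FluxOR II dye loaded 1 h at room temperature into hERG-expressing U2OS cells, then stimulus buffer added after 10 min. Kinetic 480 nm excitation/540 nm emission read, 2 min.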

[11] = qHTS assay for identifying genotoxic compounds that show differential cytotoxicity against isogenic chicken DT40 cell lines with known DNA damage response pathways - wild type cell line (AID 743012); details: DT40 wild type chicken cells viability, CellTiter-Glo, 40 h; further: potency means the concentration at half of the fitted maximal effect; nearly all actives have a fitted effect of over 60% in size
Summary of the method: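 First, wild type DT40 cells were plated at 300 per well and equilibrated about 0.5 h at 37 C/5% CO2. Next, compounds in DMSO were added and exposure lasted 40 h. Finally, CellTiter-Glo was added for 30 min at room temperature and luminescence recorded.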

[12] = qHTS assay for identifying genotoxic compounds that show differential cytotoxicity against isogenic chicken DT40 cell lines with known DNA damage response pathways - Rev3 mutant cell line (AID 743014); details: chicken DT40 Rev3-/- viability, CellTiter-Glo, 40 h; activity, negative = cytotoxicity: at 68.4 µM (top of the series); further: potency means the concentration at half of the fitted maximal effect; nearly all actives have a fitted effect of over 55% in size
[13] = qHTS assay to identify small molecule antagonists of the estrogen receptor alpha (ER-alpha) signaling pathway using the BG1 cell line - cell viability counter screen (AID 743081); details: BG1Luc4E2 viability, CellTiter-Fluor, 22 h;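 further: compound given together with 17beta-estradiol as the ER stimulus; potency means the concentration at half of the fitted maximal effect; nearly all actives have a fitted effect of over 45% in size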
[14] = qHTS assay to identify small molecule agonists of the estrogen receptor alpha (ER-alpha) signaling pathway in the presence of an antagonist - cell viability counter screen (AID 1259386); details: VM7Luc4E2 viability, CellTiter-Fluor fluorescence, 22 h;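 further: potency means the concentration at half of the fitted maximal effect; cells exposed to compounds for 22 h at 37 °C before the viability read; nearly all actives have a fitted effect of over 30% in size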
Summary of the method: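 Viability counter screen using VM7Luc4E2 (full-length ER-alpha, four ERE-luciferase). The cells were treated with compounds alongside ICI-182,780 10.0nM for 22hr, and live-cell protease fluorescence was quantified with CellTiter-Fluor.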

[15] = biological target: Cytochrome P450 2C19 (Homo sapiens) (UniProt P33261); assay: Cytochrome P450 Family 2 Subfamily C Member 19 (CYP2C19) small molecule antagonists: luciferase reporter qHTS assay (AID 1671197); details: P450-Glo CYP2C19 enzyme, luciferin luminescence, 1 h; further: potency means the concentration at half of the fitted maximal effect; nearly all actives have a fitted effect of over 65% in size
Summary of the method: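 CYP2C19 P450-Glo, 1536-well qHTS. Cpd + enzyme/proluciferin substrate 10 min RT; + NADPH regen, 37C 1 h; stop with luciferin detection reagent, 20 min RT, luminescence (RLU). Pos ctrl ketoconazole.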

[16] = qHTS assay to identify small molecule antagonists of the androgen receptor (AR) signaling pathway using the MDA cell line - cell viability counter screen (AID 743041; further: potency means the concentration at half of the fitted maximal effect; nearly all actives have a fitted effect of over 45% in size); details: MDA-kb2 viability, CellTiter-Fluor, 16 h; cells co-treated with R1881 androgen agonist
Summary of the method: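 MDA-kb2 AR-luc human breast carcinoma cells (MMTV-luciferase, AR/GR responsive) were treated with compounds plus R1881 agonist for 16 h at 37 °C. Viability was read as CellTiter-Fluor fluorescence in the same wells as the reporter assay.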

[17] = qHTS assay to identify small molecule antagonists of the peroxisome proliferator-activated receptor delta (PPARd) signaling pathway - cell viability counter screen (AID 743213); details: PPARd-bla HEK293H viability, CellTiter-Glo luminescence, 17 h; further: potency means the concentration at half of the fitted maximal effect; nearly all actives have a fitted effect of over 50% in size
Summary of the method: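 HEK293H PPARd UAS-bla cells, 5 h pre-incubation, compound + L165041 300 nM final, 17 h 37 C; B/G FRET substrate 2 h RT; then CellTiter-Glo 30 min RT, luminescence.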

[18] = biological target: Peroxisome proliferator-activated receptor delta (Homo sapiens) (UniProt Q03181); assay: qHTS assay to identify small molecule antagonists of the peroxisome proliferator-activated receptor delta (PPARd) signaling pathway (AID 743215; active means well fitted inhibition curve with a large enough effect in the signal ratio in the repeat runs, not every such curve was filed as active; inconclusive means weak or mixed curves, or effect the other way; inactive means no such curve, though single readings can be large or run the other way; the % refers to the signal ratio;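 further: cells stimulated with agonist L165041 at 300 nM final during compound exposure; on the % scale 0 is the no-effect control and ±100 the full control effect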); details: HEK293H PPARd-UAS-bla, beta-lactamase FRET ratio, antagonist, 17 h; ratio activity, negative = inhibition: at 62 µM (top of the series)
Summary of the method: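 HEK293H UAS-bla, PPARd; agonist L165041 300 nM final with cpd in DMSO; 37 C 17 h; FRET substrate, RT 2 h; fluorescence intensity.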

[19] = qHTS assay to identify small molecule agonists of the farnesoid-X-receptor (FXR) signaling pathway - cell viability counter screen (AID 743218); details: FXR-bla HEK293T viability, CellTiter-Glo luminescence, 16 h; viability change, negative = cytotoxic: at 81.1 µM (top of the series); further: potency means the concentration at half of the fitted maximal effect; nearly all actives have a fitted effect of over 45% in size
Summary of the method: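 Parallel cytotoxicity test: compound-treated (16 h, 37 C) HEK 293T FXR-bla reporter cells were lysed with CellTiter-Glo and luminescence recorded.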

[20] = biological target: Vitamin D3 receptor (Homo sapiens) (UniProt P11473); assay: qHTS assay to identify small molecule antagonists of the vitamin D receptor (VDR) signaling pathway (AID 743223; active means well fitted inhibition curve with a large enough effect in the signal ratio in the repeat runs, not every such curve was filed as active; inconclusive means weak or mixed curves, or effect the other way; inactive means no such curve, though single readings can be large or run the other way; the % refers to the signal ratio; further: on the % scale 0 is the no-effect control and ±100 the full control effect); details: VDR-UAS-bla HEK293T, beta-lactamase FRET ratio, 16 h; activity change, negative = inhibition: at 61 µM (top of the series)
Summary of the method: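 Antagonist mode: compound added to VDR-bla cells alongside agonist 1alpha,25-dihydroxyvitamin D3 (3 nM final), incubation 16 h at 37C. Read-out is LiveBLAzer FRET fluorescence, 2 h at room temperature.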

[21] = biological target: Nuclear receptor ROR-gamma (Homo sapiens) (UniProt P51449); assay: qHTS assay to identify small molecule antagonists of the retinoid-related orphan receptor gamma (ROR-gamma) signaling pathway (AID 1159521); details: Tet-on RORgamma CHO cells, RORE-luciferase, 16 h
[22] = biological target: Estrogen receptor beta (Homo sapiens) (UniProt Q92731); assay: qHTS assay to identify small molecule agonists of the estrogen receptor beta (ER-beta) signaling pathway (AID 1259377; active means well fitted activation curve with a large enough effect in the signal ratio in the repeat runs, not every such curve was filed as active; inconclusive means weak or mixed curves, or effect the other way; the % refers to the signal ratio; further: potency means the concentration at half of the fitted maximal effect; on activation: on the % scale 0 is the no-effect control and ±100 the full control effect); details: ER-beta-UAS-bla HEK293T, beta-lactamase FRET ratio, 16 h; activation: at 92.4 µM (top of the series)
[23] = biological target: Cytochrome P450 2D6 (Homo sapiens) (UniProt P10635); assay: Cytochrome P450 Family 2 Subfamily D Member 6 (CYP2D6) small molecule antagonists: luciferase reporter qHTS assay (AID 1671196); details: P450-Glo CYP2D6 enzyme assay, luciferin luminescence, 1 h
Summary of the method: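 Each well received CYP2D6 with its proluciferin substrate and chemical, sat 10 min, then got NADPH regeneration solution for 1 h at room temperature. Luminescence in RLU served as the activity measure.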

[24] = qHTS assay to identify small molecule antagonists of the estrogen receptor alpha (ER-alpha) signaling pathway - cell viability counter screen (AID 743074; calls by dose curve;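 further: HEK293 cells carrying ER-alpha-UAS-bla reporter stimulated with 17beta-estradiol; potency means the concentration at half of the fitted maximal effect; nearly all actives have a fitted effect of over 45% in size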); details: ERalpha-bla HEK293 viability, CellTiter-Glo luminescence, 18 h
[25] = qHTS assay to identify small molecule antagonists of the peroxisome proliferator-activated receptor gamma (PPARg) signaling pathway - cell viability counter screen (AID 743194); details: PPARg-bla HEK293H viability, CellTiter-Glo luminescence, 17 h; co-treated with 50 nM rosiglitazone; further: potency means the concentration at half of the fitted maximal effect; nearly all actives have a fitted effect of over 55% in size
Summary of the method: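 PPARg-UAS-bla HEK293H cells were plated, rested 5 h at 37 C, then treated with compounds plus rosiglitazone (50 nM final) for 17 h at 37 C; viability was then read by CellTiter-Glo luminescence after 30 min at room temperature.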

[26] = qHTS assay to identify small molecule antagonists of the vitamin D receptor (VDR) signaling pathway - cell viability counter screen (AID 743225); details: VDR-bla HEK293T viability, CellTiter-Glo luminescence, 16 h
Summary of the method: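 Cytotoxicity counter screen read by CellTiter-Glo luminescence (30 min, room temperature) in the same wells as the VDR-bla antagonist readout. HEK 293T VDR-UAS-bla cells had 16 h at 37C with compound and 3 nM (final) 1-alpha,25-dihydroxyvitamin D3, then 2 h with FRET substrate.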

[27] = qHTS assay to identify small molecule agonists of the RXR signaling pathway - cell viability counter screen (AID 1159529); details: RXR-alpha-bla HEK293T viability, CellTiter-Glo, 16 h
Summary of the method: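 CellTiter-Glo luminescence gave viability in the wells also read for beta-lactamase. Cells (RXR-alpha-UAS-bla HEK 293T, 2% charcoal-stripped FBS medium) had 5 hr plating, then 16 hr compound exposure at 37 C; tetraoctyl ammonium bromide served as positive control.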

CCOP(=S)(CC)Sc1ccccc1 (centres undefined)
inconclusive: ratio activity, negative = MMP loss [1] 9.75% | Potency [2] 60.9 µM | Potency [3] 9.65 µM | activation [4] 15.6% | Potency [5] 27.2 µM | ratio activity, negative = inhibition [6] 15.2% | Potency [7] 27.2 µM | activity change, negative = inhibition [8] -12.4% | Potency [9] 63 µM | Potency [10] 43.5 µM

CN(C(=O)Cc1cccc2occc12)[C@H]1CC[C@@]2(CCCO2)C[C@@H]1N1CCCC1
inconclusive: ratio activity, negative = MMP loss [1] 5.13% | Potency [11] 60.7 µM | Potency [12] 38.3 µM | Potency [13] 24.2 µM | Potency [14] 38.3 µM | Potency [15] 79.2 µM | Potency [9] 62.9 µM

COC(=O)Cl
inconclusive: Potency [16] 53.4 µM | Potency [3] 0.213 µM | ratio activity, negative = inhibition [6] 22% | Potency [17] 4.28 µM | ratio activity, negative = inhibition [18] -11.1% | Potency [19] 53.9 µM | activity change, negative = inhibition [20] 12.6% | Potency [21] 19 µM | activation [22] 12.5% | Potency [23] 62.1 µM

NC(=O)Nc1ccc([As](=O)(O)O)cc1
inconclusive: ratio activity, negative = MMP loss [1] 5.23% | Potency [24] 54.9 µM | Potency [25] 54.9 µM | Potency [19] 0.473 µM | Potency [26] 17.4 µM | Potency [27] 10.7 µM | Potency [22] 68.5 µM
